## Apparent affinities of Ab-14 variants for a coronavirus HR2 peptide

The measurements come from Engelhart et al. 2022 (doi:10.1038/s41597-022-01779-4) through the FLAb antibody collection.

Antigen: PDVDLGDISGINAS, a 14-residue peptide of the SARS-CoV-2 spike HR2 region.

Parent scFv Ab-14: VH joined to VL by the linker GGGGSGGGGSGGGGS. Changes lie in the light chain CDRs alone.
VH: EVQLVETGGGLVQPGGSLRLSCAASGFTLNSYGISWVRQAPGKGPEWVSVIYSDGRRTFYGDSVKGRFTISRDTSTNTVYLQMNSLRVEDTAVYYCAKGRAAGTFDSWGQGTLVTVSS
VL: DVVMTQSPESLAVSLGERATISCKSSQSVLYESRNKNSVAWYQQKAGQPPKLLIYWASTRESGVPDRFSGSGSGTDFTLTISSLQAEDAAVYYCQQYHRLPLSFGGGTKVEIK

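Phage display of a naive human antibody library on the peptide gave the parent. In library AAYL50, one, two or three CDR residues were substituted; doubles and triples were drawn at random. In AlphaSeq, yeast of one mating type display the scFv and yeast of the other type display the target. Binding brings cells together so that they mate, and sequencing counts the barcode pairs among the diploids. The ratio of observed to expected reads was calibrated, replicate by replicate, on BCL2-family standards whose Kd was known from biolayer interferometry. There are three technical replicates.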

The parent's light chain CDRs are KSSQSVLYESRNKNSVA, WASTRES, QQYHRLPLS; each variant's own CDRs replace them letter for letter. Every variant below is changed at Q95 of the VL (sequential numbering). The read-out is the apparent dissociation constant on a log10 scale (nM): the lower, the stronger. The mean shown is taken over the replicates in which the pair was detected. A pair that was not seen in that replicate is written "n.d."; this usually means weak binding, but a binder can also be missed. The list is sorted by this average, lowest first, undetected variants last. Background: pairings of library AAYL50 with three empty control strains gave a value in 18% of cases (median 4.19, 5th percentile 2.99). Values in that range, when seen in few replicates, are hard to tell from nonspecific mating. Parent in this assay: reference entry 0.65, copy in this library 1.68.

| CDR-L1 | CDR-L2 | CDR-L3 | log10 Kd (nM) by replicate | log10 Kd (nM), mean |
|---|---|---|---|---|
| KSSQSELYESRNKNSVA | WASTRYS | KQYHRLPLS | 0.50 / 0.71 / 0.56 | 0.59 |
| KSSQSVLYESRNKNSVA | WASTRES | YQYHRLPLS | 0.54 / 0.85 / 0.76 | 0.72 |
| KSSQSVLYESRNKNSVA | WASTRES | PQYHWLFLS | 1.17 / 1.21 / 1.41 | 1.26 |
| KSSQSVLEESRNKNSVA | WASCRES | RQYHRLPLS | 1.57 / 1.57 / 1.36 | 1.50 |
| KSSQSVLYFSRNKNSVA | WASTRES | PQDHRLPLS | 1.62 / 1.89 / 1.46 | 1.66 |
| KSSQSVLYESRNKNSVA | WASTIEP | MQYHRLPLS | 1.92 / 2.22 / 2.15 | 2.09 |
| KASQSVLYESRNKNSVA | WASTRES | SQYHGLPLS | n.d. / 2.46 / n.d. | 2.46 |
| ESPQSVLYESRNKNSVA | WASTRES | SQYHRLPLS | 2.58 / 2.37 / 2.78 | 2.57 |
| KSSQSVLYESRNKYSVA | WAFTRES | AQYHRLPLS | 2.60 / 2.49 / 2.94 | 2.68 |
| KSSQSVLYESANKNSVS | WASTRES | GQYHRLPLS | n.d. / 2.76 / n.d. | 2.76 |
| KSSQSVLYESRRKNSVA | WASTKES | WQYHRLPLS | n.d. / n.d. / 2.79 | 2.79 |
| KSSQGVLYESRNKNSVA | WASTRES | IQYHRLNLS | 3.19 / 3.67 / n.d. | 3.43 |
| KSSQSVLYFSHNKNSVA | WASTRES | EQYHRLPLS | 3.45 / n.d. / n.d. | 3.45 |
| KSSQSVLYELRNKNDVA | WASTRES | WQYHRLPLS | n.d. / n.d. / 3.50 | 3.50 |
| KSSQSVLYESRNKNSVM | WCSTRES | MQYHRLPLS | n.d. / n.d. / 3.56 | 3.56 |
| KSSQSVLYESRNKNSMA | WASTRES | RQYHRLLLS | n.d. / 3.56 / n.d. | 3.56 |
| KNSMSVLYESRNKNSVA | WASTRES | WQYHRLPLS | n.d. / 3.07 / 4.37 | 3.72 |
| KSSQSVRYESRNKNSVA | WASTRES | MQYSRLPLS | 4.08 / 4.20 / 4.00 | 4.09 |
| KSSQSVLYESRNKNSVA | WASTREM | AIYHRLPLS | 4.14 / n.d. / n.d. | 4.14 |
| KSSQSVLYESRNKNSVA | WASTMES | KDYHRLPLS | n.d. / 4.33 / n.d. | 4.33 |
| DSSQSVLYESRNKNSVA | WASTRES | PQYHRLPLS | 5.63 / n.d. / 3.23 | 4.43 |
| KSSQSVLYESRNKNSRA | FASTRES | LQYHRLPLS | 4.92 / 4.07 / n.d. | 4.49 |
| KDSQSVLYESRNKNSVA | WASTRES | AQWHRLPLS | 5.47 / 4.51 / 4.05 | 4.68 |
| KSSMSVLYKSRNKNSVA | WASTRES | VQYHRLPLS | 5.07 / 4.39 / 4.68 | 4.72 |
| KSSQSVLYESRTKNSVA | WASSRES | AQYHRLPLS | n.d. / n.d. / 4.77 | 4.77 |
| KSSQSVLYENRNKNSVA | WASTRES | CKYHRLPLS | n.d. / 4.24 / 5.48 | 4.86 |
| KSSQSVLYESRNKNSVK | WASTRES | HQYHRFPLS | n.d. / 4.90 / n.d. | 4.90 |
| KSSQSVLYESRNKNSPA | WASTRES | RQHHRLPLS | 3.74 / 5.33 / 5.75 | 4.94 |
| KSSQSVLYENRNKNSVA | WASTRES | IQYHRLDLS | 5.23 / n.d. / n.d. | 5.23 |
| GSSQSVLYESRNKNSTA | WASTRES | GQYHRLPLS | 5.68 / n.d. / 6.49 | 6.09 |
| KTSQSILYESRNKNSVA | WASTRES | DQYHRLPLS | n.d. / n.d. / n.d. | n.d. |
| KSSISVGYESRNKNSVA | WASTRES | RQYHRLPLS | n.d. / n.d. / n.d. | n.d. |
| KSSQSVLYNSRNKNSVC | WASTRES | AQYHRLPLS | n.d. / n.d. / n.d. | n.d. |
| KSSQSVLYESRNKNSVP | WASKRES | EQYHRLPLS | n.d. / n.d. / n.d. | n.d. |
| KSSQSVLYASRNKNSVA | WASTRES | YQYHRLPLS | n.d. / n.d. / n.d. | n.d. |
| KSSQSVLLESRNKNSVA | WASTRES | SQYHRLPLS | n.d. / n.d. / n.d. | n.d. |
| KSSQSVLYESRNKCSVA | WASTRES | MQYHSLPLS | n.d. / n.d. / n.d. | n.d. |
| KSSQSVLYESRDKNSVA | WASTRES | DQEHRLPLS | n.d. / n.d. / n.d. | n.d. |
| KSSQSVEYESRNKNSVA | WASTREM | YQYHRLPLS | n.d. / n.d. / n.d. | n.d. |
| KSSQSVLYESRNKNSVA | WASTRES | FQYGRKPLS | n.d. / n.d. / n.d. | n.d. |
| KSSGSKLYESRNKNSVA | WASTRES | IQYHRLPLS | n.d. / n.d. / n.d. | n.d. |
| KSSQSVLYERRNKNSVA | WASTRDS | NQYHRLPLS | n.d. / n.d. / n.d. | n.d. |
| KSSQSVLYESRNKNSDA | WASTRAS | VQYHRLPLS | n.d. / n.d. / n.d. | n.d. |
| KSSQSVLYESRNKNSVA | WALTRES | RQYHDLPLS | n.d. / n.d. / n.d. | n.d. |
| KSSQSVLYESRNKNSVA | WASTHES | HQYHRLYLS | n.d. / n.d. / n.d. | n.d. |
| KSSQSVLYESRNKNSVA | WASTREW | PQYHRLPLS | n.d. / n.d. / n.d. | n.d. |
| VSSQSVLYESRNKRSVA | WASTRES | AQYHRLPLS | n.d. / n.d. / n.d. | n.d. |
| KSSQSGLYESRNKNSVA | WASTRWS | DQYHRLPLS | n.d. / n.d. / n.d. | n.d. |
| KSSQSVLYESRNKNSVA | WRSTRES | GQYSRLPLS | n.d. / n.d. / n.d. | n.d. |
| QSSQSVLYESRNKNSVA | WASTRES | CWYHRLPLS | n.d. / n.d. / n.d. | n.d. |
| CSSQSVLYESSNKNSVA | WASTRES | FQYHRLPLS | n.d. / n.d. / n.d. | n.d. |

Extract of 8 entries:

CDR-L1,CDR-L2,CDR-L3,log10 Kd (nM) by replicate,"log10 Kd (nM), mean"
KSSQSVLYESRNKYSVA,WAFTRES,AQYHRLPLS,2.60 / 2.49 / 2.94,2.68
VSSQSVLYESRNKRSVA,WASTRES,AQYHRLPLS,n.d. / n.d. / n.d.,n.d.
QSSQSVLYESRNKNSVA,WASTRES,CWYHRLPLS,n.d. / n.d. / n.d.,n.d.
KSSMSVLYKSRNKNSVA,WASTRES,VQYHRLPLS,5.07 / 4.39 / 4.68,4.72
KSSQSVLLESRNKNSVA,WASTRES,SQYHRLPLS,n.d. / n.d. / n.d.,n.d.
KSSQSVLYESRNKNSMA,WASTRES,RQYHRLLLS,n.d. / 3.56 / n.d.,3.56
KSSQSVLYESRNKNSVM,WCSTRES,MQYHRLPLS,n.d. / n.d. / 3.56,3.56
CSSQSVLYESSNKNSVA,WASTRES,FQYHRLPLS,n.d. / n.d. / n.d.,n.d.